Measurements as given in patent US20130296347A1, “Compositions and Methods for Prophylaxis and Treatment of Addictions” (Omeros Corporation, priority 2007, published 2013).

Tested on: alcoholic patients
Test: Observational study of alcohol abuse in human patients
Assay type: in vivo

O=C1CC[C@@]2(O)[C@H]3Cc4ccc(O)c5c4[C@@]2(CCN3CC2CC2)[C@H]1O5 [naltrexone]
MCV, mean value of blood tests (T1 = 4 weeks): 101.96 | Anxiety Score, STAY-Y1 scale (mean score values) (T = 0, beginning of the treatment): 61 | Anxiety Score, STAY-Y1 scale (mean score values) (T = 1.1 (month 1, week 1)): 61 | Anxiety Score, STAY-Y1 scale (mean score values) (T = 1.2): 59 | Anxiety Score, STAY-Y1 scale (mean score values) (T = 1.3): 53 | Obsessive compulsive drinking scale (OCDS) (mean score values) (T = 1.3): 41 | Anxiety Score, STAY-Y1 scale (mean score values) (T = 1.4): 52 | Obsessive compulsive drinking scale (OCDS) (mean score values) (T = 1.4): 40 | Anxiety Score, STAY-Y1 scale (mean score values) (T = 2.1): 51 | Obsessive compulsive drinking scale (OCDS) (mean score values) (T = 2.1): 41 | Anxiety Score, STAY-Y1 scale (mean score values) (T = 2.2): 53 | Obsessive compulsive drinking scale (OCDS) (mean score values) (T = 2.2): 43 | Anxiety Score, STAY-Y1 scale (mean score values) (T = 2.3): 52 | Obsessive compulsive drinking scale (OCDS) (mean score values) (T = 2.3): 42 | Anxiety Score, STAY-Y1 scale (mean score values) (T = 2.4): 51 | Obsessive compulsive drinking scale (OCDS) (mean score values) (T = 2.4): 44
